The target of this experiment is T1, SHP2^E76K (Homo sapiens, UniProt Q06124, E76K).
T1 construct: made in house
The experiment is described as follows: SHP099 inhibition of DiFMUP dephosphorylation by purified SHP2. Format: biochemical. Conditions: SHP2^E76K versus SHP2.

With `CC1(N)CCN(c2cnc(-c3cccc(Cl)c3Cl)c(N)n2)CC1` [SHP099], the “Reduction of inhibitory potency of SHP099 for SHP2 by the E76K mutation” value is recorded as “more than 100 fold”.

(Values after publication PMC6207684, “Structural reorganization of SHP2 by oncogenic mutations and implications for oncoprotein resistance to allosteric inhibition” (Nature Communications, 2018).)
